Experimental data as given in US12544374B2, “AZA-quinoline compounds and uses thereof” (Novartis AG, priority 2019, dated 2026).

The chains behind the UniProt entries cited, without tags or fusion partners.
UniProt Q15910, whole entry: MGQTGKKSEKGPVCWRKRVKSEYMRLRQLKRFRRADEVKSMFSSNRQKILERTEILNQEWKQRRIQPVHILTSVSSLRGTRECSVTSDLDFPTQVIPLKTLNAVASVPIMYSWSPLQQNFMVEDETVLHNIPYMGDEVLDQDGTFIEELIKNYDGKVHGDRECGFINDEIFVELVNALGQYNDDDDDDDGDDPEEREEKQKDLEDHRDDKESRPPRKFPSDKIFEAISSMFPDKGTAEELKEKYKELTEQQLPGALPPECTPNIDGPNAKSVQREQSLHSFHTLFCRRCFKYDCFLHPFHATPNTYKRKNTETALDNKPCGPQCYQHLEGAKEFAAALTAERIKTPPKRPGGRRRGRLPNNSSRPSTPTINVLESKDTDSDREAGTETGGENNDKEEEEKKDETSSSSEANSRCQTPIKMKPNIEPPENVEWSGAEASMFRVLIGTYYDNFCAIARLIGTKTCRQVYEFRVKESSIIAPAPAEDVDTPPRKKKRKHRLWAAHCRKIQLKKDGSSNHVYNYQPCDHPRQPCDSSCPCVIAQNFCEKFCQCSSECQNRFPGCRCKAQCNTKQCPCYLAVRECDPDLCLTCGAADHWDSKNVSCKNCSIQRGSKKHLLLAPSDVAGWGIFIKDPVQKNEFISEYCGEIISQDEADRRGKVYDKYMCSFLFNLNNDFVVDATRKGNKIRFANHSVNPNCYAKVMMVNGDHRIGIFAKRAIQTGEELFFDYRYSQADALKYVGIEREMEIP
UniProt Q15022, whole entry partner: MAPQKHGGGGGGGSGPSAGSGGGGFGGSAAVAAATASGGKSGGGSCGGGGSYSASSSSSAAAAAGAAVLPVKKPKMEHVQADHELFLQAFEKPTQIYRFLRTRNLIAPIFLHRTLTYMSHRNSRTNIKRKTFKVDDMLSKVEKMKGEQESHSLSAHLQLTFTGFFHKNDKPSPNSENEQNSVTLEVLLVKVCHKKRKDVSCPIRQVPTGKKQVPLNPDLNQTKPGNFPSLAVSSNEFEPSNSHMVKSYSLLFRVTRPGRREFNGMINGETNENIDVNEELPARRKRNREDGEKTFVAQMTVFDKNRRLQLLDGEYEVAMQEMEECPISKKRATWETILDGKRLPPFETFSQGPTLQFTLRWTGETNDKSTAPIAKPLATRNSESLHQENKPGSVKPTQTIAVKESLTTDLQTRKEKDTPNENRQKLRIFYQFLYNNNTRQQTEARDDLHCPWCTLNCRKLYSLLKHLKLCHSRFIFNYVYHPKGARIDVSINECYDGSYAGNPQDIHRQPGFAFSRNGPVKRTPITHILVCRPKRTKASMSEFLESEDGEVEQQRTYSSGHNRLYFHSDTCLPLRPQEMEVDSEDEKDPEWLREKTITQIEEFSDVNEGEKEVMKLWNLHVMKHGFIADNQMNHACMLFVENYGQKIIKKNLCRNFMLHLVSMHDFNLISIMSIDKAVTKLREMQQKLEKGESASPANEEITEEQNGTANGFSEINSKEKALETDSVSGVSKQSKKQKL
UniProt Q09028, whole entry partner: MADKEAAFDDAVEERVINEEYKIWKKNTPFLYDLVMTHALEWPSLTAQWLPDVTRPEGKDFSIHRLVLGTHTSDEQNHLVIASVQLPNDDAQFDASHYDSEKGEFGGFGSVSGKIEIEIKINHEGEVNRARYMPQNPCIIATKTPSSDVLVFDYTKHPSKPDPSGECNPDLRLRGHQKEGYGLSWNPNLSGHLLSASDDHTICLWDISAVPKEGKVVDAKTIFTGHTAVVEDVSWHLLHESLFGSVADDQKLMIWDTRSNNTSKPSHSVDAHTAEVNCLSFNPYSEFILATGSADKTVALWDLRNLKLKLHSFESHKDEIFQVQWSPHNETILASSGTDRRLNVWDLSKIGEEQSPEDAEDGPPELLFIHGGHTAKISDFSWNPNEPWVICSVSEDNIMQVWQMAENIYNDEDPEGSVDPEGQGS
UniProt O75530, whole entry partner: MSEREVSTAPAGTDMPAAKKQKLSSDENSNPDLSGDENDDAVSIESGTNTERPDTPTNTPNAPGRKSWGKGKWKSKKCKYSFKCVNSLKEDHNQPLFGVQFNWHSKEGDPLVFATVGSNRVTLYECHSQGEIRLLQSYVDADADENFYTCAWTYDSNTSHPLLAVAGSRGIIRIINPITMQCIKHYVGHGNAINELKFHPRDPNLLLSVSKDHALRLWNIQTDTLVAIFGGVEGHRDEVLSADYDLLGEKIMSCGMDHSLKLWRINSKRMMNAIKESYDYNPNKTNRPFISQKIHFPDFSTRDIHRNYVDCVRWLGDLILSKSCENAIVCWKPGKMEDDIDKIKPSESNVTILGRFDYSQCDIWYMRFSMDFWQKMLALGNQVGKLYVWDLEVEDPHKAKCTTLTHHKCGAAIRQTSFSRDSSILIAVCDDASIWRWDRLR
UniProt Q6ZN18, whole entry partner: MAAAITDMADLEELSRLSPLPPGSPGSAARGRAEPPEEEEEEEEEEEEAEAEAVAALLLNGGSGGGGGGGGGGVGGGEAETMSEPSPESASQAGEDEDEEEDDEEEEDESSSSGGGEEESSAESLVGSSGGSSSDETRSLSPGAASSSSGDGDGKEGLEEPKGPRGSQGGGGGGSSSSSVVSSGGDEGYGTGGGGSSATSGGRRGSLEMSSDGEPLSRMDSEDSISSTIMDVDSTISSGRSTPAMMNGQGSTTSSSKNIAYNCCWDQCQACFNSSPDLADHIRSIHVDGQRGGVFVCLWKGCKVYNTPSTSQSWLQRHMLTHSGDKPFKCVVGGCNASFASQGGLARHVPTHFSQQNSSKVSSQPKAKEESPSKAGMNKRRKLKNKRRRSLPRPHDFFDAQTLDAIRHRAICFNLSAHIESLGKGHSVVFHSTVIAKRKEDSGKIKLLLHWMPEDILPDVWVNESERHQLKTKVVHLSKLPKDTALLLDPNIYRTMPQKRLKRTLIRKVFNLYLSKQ

What was measured:
EZH2 = EZH2 (Homo sapiens (Human), UniProt Q15910); test: ELISA (H3K27 methylation) assay in G401 cell; type: cell-based; conditions: read-out: EZH2 IC50 (μM) (b), (b) ELISA Qualified assay, 48 h
[1] = target: wild type PRC2 (wtPRC2) complex (Homo sapiens (Human), UniProt Q15910); test: EZH2 LC-MS assay (LC-Qualified); type: biochemical; conditions: read-out: EZH2 IC50 (μM) (a)

IC50 (EZH2) [µM] | IC50 [1] [µM] | SMILES
0.046 | 0.223 | CC(C(=O)N(C)C1COC1)c1cnc(NC[C@H]2CC[C@H](Nc3ccc4ccnc(Cl)c4n3)CC2)nc1 (single isomer, unassigned) [C56 or C57 (Peak 1)]
0.003 | 0.015 | CC(C(=O)N(C)C1COC1)c1cnc(NC[C@H]2CC[C@H](Nc3ccc4ccnc(Cl)c4n3)CC2)nc1 (single isomer, unassigned) [C56 or C57 (Peak 2)]
0.846 | 0.217 | CC(C(=O)N1CC(O)C1)c1cnc(NC[C@H]2CC[C@H](Nc3ccc4ccnc(Cl)c4n3)CC2)nc1 (single isomer, unassigned) [C70 or C71 (Peak 1)]
0.019 | 0.028 | CC(C(=O)N1CC(O)C1)c1cnc(NC[C@H]2CC[C@H](Nc3ccc4ccnc(Cl)c4n3)CC2)nc1 (single isomer, unassigned) [C70 or C71 (Peak 2)]
0.229 | 0.071 | O=C(NC1COC1)C(CO)c1cnc(NC[C@H]2CC[C@H](Nc3ccc4ccnc(Cl)c4n3)CC2)nc1 (single isomer, unassigned) [C73 or C74 (Peak 1)]
0.018 | 0.01 | O=C(NC1COC1)C(CO)c1cnc(NC[C@H]2CC[C@H](Nc3ccc4ccnc(Cl)c4n3)CC2)nc1 (single isomer, unassigned) [C73 or C74 (Peak 2)]
0.557 | 0.28 | O=C(NC1COC1)C(O)c1cnc(NC[C@H]2CC[C@H](Nc3ccc4ccnc(Cl)c4n3)CC2)nc1 (single isomer, unassigned) [C75 or C76 (Peak 1)]
0.005 | 0.021 | O=C(NC1COC1)C(O)c1cnc(NC[C@H]2CC[C@H](Nc3ccc4ccnc(Cl)c4n3)CC2)nc1 (single isomer, unassigned) [C75 or C76 (Peak 2)]
